target: met (HGF receptor) in human gastric cancer cells MKN45 (Homo sapiens, UniProt P08581); test: Inhibitory activity against met-autophosphorylation using ELISA method (2), MKN45 cells, HGF-independent; format: cell-based

Chains of the proteins cited; added tags and fusions are not shown. Residues count along the entry.
UniProt P08581, 25-1390 limits assumed: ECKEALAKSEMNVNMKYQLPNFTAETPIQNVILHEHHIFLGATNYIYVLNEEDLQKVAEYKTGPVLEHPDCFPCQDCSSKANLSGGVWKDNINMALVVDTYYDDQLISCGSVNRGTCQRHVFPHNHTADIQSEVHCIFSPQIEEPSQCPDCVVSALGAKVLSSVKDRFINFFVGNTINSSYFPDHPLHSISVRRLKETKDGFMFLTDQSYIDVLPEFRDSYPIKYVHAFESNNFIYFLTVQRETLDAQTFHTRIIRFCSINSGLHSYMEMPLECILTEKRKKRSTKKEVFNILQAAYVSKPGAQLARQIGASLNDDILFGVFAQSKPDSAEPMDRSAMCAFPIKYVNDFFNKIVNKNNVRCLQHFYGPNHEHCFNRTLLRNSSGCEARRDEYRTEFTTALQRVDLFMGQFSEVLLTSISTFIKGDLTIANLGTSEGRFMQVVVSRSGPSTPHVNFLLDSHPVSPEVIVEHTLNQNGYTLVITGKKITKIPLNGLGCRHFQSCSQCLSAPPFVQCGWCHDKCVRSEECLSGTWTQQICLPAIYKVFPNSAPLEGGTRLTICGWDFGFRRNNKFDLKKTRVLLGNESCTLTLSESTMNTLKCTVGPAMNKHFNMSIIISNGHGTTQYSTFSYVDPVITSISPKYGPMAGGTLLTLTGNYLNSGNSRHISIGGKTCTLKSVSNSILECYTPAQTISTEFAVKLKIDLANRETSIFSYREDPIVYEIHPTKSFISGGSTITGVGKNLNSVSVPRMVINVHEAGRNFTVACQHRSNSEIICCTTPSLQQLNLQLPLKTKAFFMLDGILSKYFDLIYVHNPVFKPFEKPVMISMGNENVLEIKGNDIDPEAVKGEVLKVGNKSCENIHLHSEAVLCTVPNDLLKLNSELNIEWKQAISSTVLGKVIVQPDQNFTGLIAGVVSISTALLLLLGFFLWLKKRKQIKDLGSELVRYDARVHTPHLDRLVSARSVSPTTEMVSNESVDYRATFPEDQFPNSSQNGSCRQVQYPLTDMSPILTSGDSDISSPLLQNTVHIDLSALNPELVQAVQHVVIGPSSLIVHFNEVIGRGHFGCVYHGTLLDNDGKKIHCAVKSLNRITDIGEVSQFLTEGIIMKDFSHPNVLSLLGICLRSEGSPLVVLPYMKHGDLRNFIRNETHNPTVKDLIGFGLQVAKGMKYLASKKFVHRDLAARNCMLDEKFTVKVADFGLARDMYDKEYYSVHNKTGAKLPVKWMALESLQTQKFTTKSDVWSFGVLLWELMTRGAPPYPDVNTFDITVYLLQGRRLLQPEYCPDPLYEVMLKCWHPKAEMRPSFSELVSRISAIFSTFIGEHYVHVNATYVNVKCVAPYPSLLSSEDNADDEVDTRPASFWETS

SMILES | IC50 [µM]
COc1cc2nccc(Oc3ccc(NC(=O)NC(=O)CNc4ccccc4C)cc3)c2cc1OC | 1.3
COc1cc2c(Oc3ccc(NC(=S)NC(=O)Cc4ccc(F)cc4)cc3F)ccnc2cc1OCCN1CCN(C)CC1 | 0.0391
COc1cc2nccc(Oc3ccc(NC(=O)NC(=O)CC4C5CCC4CC5)cc3)c2cc1OC (stereo not shown) | 0.293
COc1cc2c(Oc3ccc(NC(=S)NC(=O)Cc4cccc(Cl)c4)cc3F)ccnc2cc1OCC(O)CN1CCCC1 (stereo not shown) | 0.0426

From patent publication US8324245B2
